Experimental data: patent US20180100153A1, “Method and kit for use in inhiiting tumor progression, predicting or determining tumor progression state in VGF expressing cancers” (Truebio LLC, priority 2016, published 2018)

How the values were obtained:
Conditions in all cases: gefitinib 1 μM, 1 hr
[1] = test system: phosphorylation of EGFR, AKT and ERK in HCC827 cells; experiment: Immunoblotting of EGFR, ERK and AKT phosphorylation; assay type: cell-based
Excerpt: (§1) Photographs represent growth of HCC827 and HCC827GR cells stained by crystal violet. […] (FIG. 1D) Representative phase-contrast images of HCC827 and HCC827GR cells. Scale bar, 100 μm. (FIG. 1E) Immunofluorescence analysis for assessing the expression of E-cadherin (E-cad, green) and Vimentin (VIM, red) expressions in HCC827GR versus HCC827 cells. Nuclei were stained in blue with DAPI. Scale bar, 100 μm. (FIG. 1F) Q-PCR analysis for measuring mRNA levels of CDH1 (E-cad), EPCAM (EpCAM), Vimentin (VIM) and TWIST1 in HCC827GR versus HCC827 cells.

[2] = test system: phosphorylation of EGFR, AKT and ERK in HCC827GR cells; experiment: as above; assay type: cell-based
Excerpt: as §1

[3] = test system: phosphorylation of ERK and AKT in VGF-expressing HCC827 cells; experiment: Immunoblotting of ERK and AKT phosphorylation

Structure (SMILES): COc1cc2ncnc(Nc3ccc(F)c(Cl)c3)c2cc1OCCCN1CCOCC1 [gefitinib]
- phosphorylation of EGFR [1]: attenuated
- phosphorylation of ERK [1]: attenuated
- phosphorylation of EGFR ([2]; HCC827GR cells): attenuated
- phosphorylation of ERK ([2]; HCC827GR cells): attenuated
- phosphorylation of AKT ([2]; HCC827GR compared to HCC827 cells): not diminished
- phosphorylation of AKT [3]: not
- phosphorylation of ERK [3]: attenuated
